Values quoted from earlier work in patent US20130028991A1, “DIETARY SUPPLEMENT FOR USE IN A WEIGHT LOSS PROGRAM” (priority 2011, published 2013).

Conditions: patients of the group treated with insulin, UKPDS

insulin
weight gained on average: 6.5 kg
